According to paper PMC6033896, “Discovery of Mcl-1 inhibitors from integrated high throughput and virtual screening” (Scientific Reports, 2018):

Target: T1, fluorescent labelled Bid BH3 peptide (fluorescent label (Flu- or FAM-), position not stated)
T1 construct: BH3 peptide derived from the pro-apoptotic protein Bid; The methods name two probes (Flu-Bid with Mcl-1); the two probes may differ in label and limits; also called Flu-Bid; FAM-Bid
Assay: fluorescence polarisation; direct binding of the fluorescent Bid probe to recombinant protein; Ex 485 nm, Em 530 nm, room temperature; buffer of the Kd determination not told apart from the two competitive assay buffers
Conditions: both partners purified

B1: recombinant Bcl-2 protein (natural protein)
chain: MAHAGRTGYDNREIVMKYIHYKLSQRGYEWDAGDDVEENRTEAPEGTESEVVHLTLRQAGDDFSRRYRRDFAEMSSQLHLTPFTARGRFATVVEELFRDGVNWGRIVAFFEFGGVMCVESVNREMSPLVDNIALWMTEYLNRHLHTWIQDNGGWDAFVELY
Kd: 18.4 ± 1.4 nM
